From patent publication US9096596B2 (Janssen Pharmaceutica NV, priority 2013, dated 2015) come the findings set out here.

The chains behind the UniProt entries cited, without tags or fusion partners. Where a name states a change or a piece, a line headed by the entry shows the natural chain unless it says otherwise.
UniProt Q64663: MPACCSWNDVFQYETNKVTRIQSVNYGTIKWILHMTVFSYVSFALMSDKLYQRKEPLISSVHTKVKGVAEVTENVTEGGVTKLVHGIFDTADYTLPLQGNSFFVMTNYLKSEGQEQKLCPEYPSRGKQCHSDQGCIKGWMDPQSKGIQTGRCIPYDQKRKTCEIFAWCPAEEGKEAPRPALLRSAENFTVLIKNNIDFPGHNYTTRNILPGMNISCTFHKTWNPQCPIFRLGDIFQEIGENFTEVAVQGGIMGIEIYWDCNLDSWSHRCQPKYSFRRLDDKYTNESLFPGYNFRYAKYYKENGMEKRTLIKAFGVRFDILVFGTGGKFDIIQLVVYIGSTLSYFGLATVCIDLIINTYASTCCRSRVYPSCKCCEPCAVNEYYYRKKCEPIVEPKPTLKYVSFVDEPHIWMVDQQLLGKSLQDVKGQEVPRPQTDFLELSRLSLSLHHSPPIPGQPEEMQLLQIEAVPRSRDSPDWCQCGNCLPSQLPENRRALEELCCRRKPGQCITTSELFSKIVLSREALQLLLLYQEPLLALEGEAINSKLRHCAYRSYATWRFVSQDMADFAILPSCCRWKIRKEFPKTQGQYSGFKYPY
UniProt Q99572: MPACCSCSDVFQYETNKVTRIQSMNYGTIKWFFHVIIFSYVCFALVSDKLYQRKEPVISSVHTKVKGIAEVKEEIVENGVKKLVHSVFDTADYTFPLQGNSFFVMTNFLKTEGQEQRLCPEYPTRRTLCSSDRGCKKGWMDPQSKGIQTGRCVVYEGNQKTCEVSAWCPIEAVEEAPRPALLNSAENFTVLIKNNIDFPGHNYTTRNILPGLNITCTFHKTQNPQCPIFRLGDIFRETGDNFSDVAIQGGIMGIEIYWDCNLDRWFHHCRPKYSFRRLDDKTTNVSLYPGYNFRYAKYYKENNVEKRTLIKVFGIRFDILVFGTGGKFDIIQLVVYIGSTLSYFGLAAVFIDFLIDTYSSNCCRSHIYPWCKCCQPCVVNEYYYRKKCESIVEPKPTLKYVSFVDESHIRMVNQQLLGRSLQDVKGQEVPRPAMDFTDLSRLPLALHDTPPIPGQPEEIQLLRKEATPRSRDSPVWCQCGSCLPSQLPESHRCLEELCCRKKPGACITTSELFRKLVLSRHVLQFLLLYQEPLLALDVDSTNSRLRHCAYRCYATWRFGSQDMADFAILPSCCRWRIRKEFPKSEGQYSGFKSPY

Assay [1] deals with T1, rat P2X7 (Rattus norvegicus (Rat), UniProt Q64663). Briefly: Ca2+ flux (FLIPR) in 1321N1 cells expressing recombinant rat P2X7 channel. To be noted: 250 μM BzATP, Calcium-4 dye. In kind it is cell-based. On the procedure:
(§1) 1321N1 cells expressing the recombinant human, rat or mouse P2X7 channel was cultured in HyQ DME/(HyClone/Dulbecco's Modified Eagle Medium) high glucose supplemented with 10% Fetal Bovine Serum (FBS) and appropriate selection marker. Cells were seeded at a density of 25000 cells/well (96-well clear bottom black walled plates) in 100 μl volume/well. On the day of the experiment, cell plates were washed with assay buffer, containing (in mM): 130 NaCl, 2 KCl, 1 CaCl2, 1 MgCl2, 10 HEPES, 5 glucose; pH 7.40 and 300 mOs. After the wash, cells were loaded with the Calcium-4 dye (Molecular Device) and incubated in the dark for 60 minutes. Test compounds were prepared at 250× the test concentration in neat DMSO. Intermediate 96-well compound plates were prepared by transferring 1.2 μL of the compound into 300 μL of assay buffer. A further 3× dilution occurred when transferring 50 μL/well of the compound plate to 100 μL/well in the cell plate. Cells were incubated with test compounds and dye for 30 minutes. Calcium dye fluorescence was monitored in FLIPR as the cells were challenged by adding 50 μL/well of BzATP (final concentration is 250 μM BzATP (human and rat) or 600 μM (mouse)). The fluorescence change was measured 180 seconds after adding the agonist.
On the technique in general: Calcium assays in cells follow changes in intracellular calcium, usually with a dye or a luminescent sensor.

In assay [2] the target is T2, P2X7 (Homo sapiens (Human), UniProt Q99572). Description: P2X7 antagonism in human whole blood (IL-1β release, ELISA). Particulars: IL-1β release in human blood, LPS 30 ng/ml + Bz-ATP 1 mM. It is filed as cell-based. How it is done: Human blood was collected using a blood donor program. […] Cells were incubated for an additional 1.5 hours. […] In Table 2, when the data cell has been left blank, it is intended to mean that the compound was not tested in that assay.
In general terms: ELISA stands for enzyme-linked immunosorbent assay.

Assay [3] concerns the target T2, P2X7. Description: Radioligand binding, human P2X7-1321N1 cell membranes, tracer tritiated A-804598. To be noted: human P2X7-1321N1 membranes; 1 hour at 4° C.; IC50 corrected for tracer concentration and affinity. How it is done: (§2) human or rat P2X7-1321 N1 cells were collected and frozen @ −80° C. On the day of the experiment, cell membrane preparations were made according to standard published methods. The total assay volume was 100 μl:10 μl compound (10×)+(b) 40 μl tracer (2.5×)+50 μl membrane (2×). The tracer used for the assay was tritiated A-804598. The compound can be prepared as described in the literature. […] The assay was terminated by filtration (GF/B filters pre-soaked with 0.3% PEI) and washed with washing buffer (Tris-HCl 50 mM). The IC50 generated in the binding assay was corrected for tracer concentration and affinity of the tracer to derive at the affinity (Ki) of the test compounds.

Assay [4] addresses T1, rat P2X7. Briefly: Radioligand binding, rat P2X7-1321N1 cell membranes, tracer tritiated A-804598. Particulars: rat P2X7-1321N1 membranes; 1 hour at 4° C.; IC50 corrected for tracer concentration and affinity. How it is done: as §2
Assay [5] has as its target T2, P2X7. Description: Ca2+ flux (FLIPR) in 1321N1 cells expressing recombinant human P2X7 channel. It is filed as cell-based. To be noted: 250 μM BzATP, Calcium-4 dye. On the procedure: as §1

Molecules are shown by their SMILES.

What is called IC50 is the concentration needed to halve the response being measured. The term Ki denotes the dissociation constant of the complex between target and ligand, obtained from inhibition or displacement. A lower Ki goes with higher affinity. On to `Cc1c(C(=O)N2CCc3c(ncnc3-c3ccn[nH]3)C2)cccc1C(F)(F)F` [Example 10, 7-{[2-Methyl-3-(trifluoromethyl)phenyl]carbonyl}-4-(1H-pyrazol-5-yl)-5,6,7,8-tetrahydropyrido[3,4-d]pyrimidine], for which the IC50 on rat P2X7 [1] was 1010 nM; at P2X7 [2] it was 2000 nM; on P2X7 [5] it was 46.1 nM. Further, the figures for the Ki on P2X7 [3] and at rat P2X7 [4] were 30.9 nM and 21.9 nM, respectively.
